miR-21 reporter = miR-21 reporter, rising signal. 340,000 tested, under 10 active. Potency, µM (highest dose often 38.3 µM). HeLa miR-21 FLuc reporter, luciferase, 48 h. AID 2288; active = well fitted rising curve with a large enough effect; inconclusive = small, poorly fitted or top-dose-only effect; inactive = no such curve, though single readings can be large or run the other way;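 further: miR-21 action dims this reporter so a rising signal means less miR-21 action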
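Using DMEM plus 10% FBS, HeLa miR-21-FLuc cells are incubated with test compounds (final up to about 40uM) for 48 hours; firefly luciferase signal is then imaged following reagent-mediated lysis.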
Nrf2 ARE act = activators of Nrf2 (ARE) signaling | AREc32 ARE-luciferase reporter (MCF7-derived line), luminescence, 24 h | Potency, µM (doses to about 46.1 µM), hits mostly activators | actives 0.31% (n = 410,000) | AID 624171; also: nearly all actives have a fitted effect of over 65% in size
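AREc32_Fluc, 1000 cells/well, OPTI-MEM + 5% FBS, o/n 37 deg C 5% CO2; 23 nL cpd by pin tool, 24 hr; Steady-Glo 30 min RT, luminescence.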
B2AR arrestin = recruits beta-arrestin to the human beta2-adrenergic receptor; beta-arrestin recruitment to beta2AR, cell-based reporter; Potency, µM (doses to about 46.1 µM), usual class: activators; actives 0.02% (n = 330,000); also: nearly all actives have a fitted effect of over 65% in size
A549 viability = kills or reduces viability of A549 cells in Nrf2 counter-screen; A549 ARE-Fluc cells, CellTiter-Fluor viability, 18-24 h; Potency, µM (titrated, usually from 46 µM), usual class: inhibitors; actives 0.16% (n = 390,000); AID 504648
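A549 ARE-Fluc cells in 5% FBS OPTI-MEM, 5000 cells/well, rested 2 h then exposed to compounds in concentration-response for 18-24 h at 37 °C. Viability by CellTiter-Fluor fluorescence (Ex 405/Em 525) after 30 min; luciferase luminescence (BugLite, 15 min, RT) read afterwards.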
Nrf2 block = inhibitors of Nrf2 signaling. A549 ARE-Fluc reporter, luciferase luminescence, 18-24 h. Potency, µM (top dose mostly 46 µM), hits mostly inhibitors. actives 2.1% (n = 360,000); also: nearly all actives have a fitted effect of over 60% in size
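Quantitative HTS in A549 cells stably bearing an antioxidant response element-firefly luciferase construct. Inhibition of Nrf2-driven transcription was scored by luminescence after 18-24 h of compound exposure at 37 °C.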
A number is an active result; . = inactive; ? = inconclusive; / = no result; [ ] = remark or other dose. An excerpt weighted towards active compounds, which were near 2.2% of everything screened. Unless noted, calls follow the shape of the dose curve; as a rule, active = well fitted curve in the direction sought with a large enough effect; inconclusive = small, poorly fitted or top-dose-only effect, or another doubt; inactive = no such curve, though single readings can be large; an effect the other way counts as inactive or inconclusive.

SMILES	miR-21 reporter	Nrf2 ARE act	B2AR arrestin	A549 viability	Nrf2 block
S=c1[nH]c(=S)c2[nH]cnc2[nH]1	/	/	/	.	.
CCOc1ccc(NS(=O)(=O)c2ccc(C(=O)N3CCCCCC3)cc2)cc1	/	.	.	.	23.1µM
CCOc1ccc(NS(=O)(=O)c2ccc(C(=O)N3CCCC(C)C3)cc2)cc1 (centres undefined)	/	.	.	.	7.31µM
COc1ccc(S(=O)(=O)NCc2ccc(C(=O)N3CCN(Cc4ccccc4)CC3)cc2)cc1	.	.	.	.	?
CCOc1ccc(S(=O)(=O)Nc2cccc(Cl)c2)cc1	/	.	/	?	13µM
COc1ccc(NS(=O)(=O)c2ccc(C(=O)N3CCN(Cc4ccccc4)CC3)cc2)cc1	.	.	.	.	20.6µM
CCOc1ccc(S(=O)(=O)Nc2ccc(C(=O)N3CCCC3)cc2)cc1	.	.	.	.	.
C=C1C(=O)OC2C1CCC(C)C1C=CC(=O)C12C (centres undefined)	/	?	/	.	?
C=C1C(=O)OC2CC1C(O)CC(C)=CCCC(C)=CC(O)CC2C (centres undefined)	/	?	/	14.6µM	9.2µM
O=C1C(Cl)=C(N2CCN(c3ccccc3[N+](=O)[O-])CC2)C(=O)c2ccccc21	.	7.94µM	.	.	.
COc1ccc(S(=O)(=O)Nc2cccc(N(C)S(C)(=O)=O)c2)cc1Br	.	.	.	.	18.4µM
Nc1c(-c2ccccc2)c(CSc2nc3ccccc3[nH]2)nn1-c1ccc(Cl)cc1	?	.	.	?	?
Cc1ccccc1-n1nc(CSc2nc3ccccc3[nH]2)c(-c2ccccc2)c1N	.	.	.	.	23.1µM
Nc1c(-c2ccccc2)c(CSc2nc3ccccc3[nH]2)nn1-c1cccc(Cl)c1	.	.	.	.	23.1µM
COc1cc(C(=O)Nc2cccc(OCc3cc(=O)n4c(C)csc4n3)c2)cc(OC)c1OC	.	.	/	.	.
O=[S+]([O-])([O-])c1ccc2c(c1)cc([S+](=O)([O-])[O-])c1nn(-c3ccc(/C=C/c4ccc(-n5nc6c([S+](=O)([O-])[O-])cc7cc([S+](=O)([O-])[O-])ccc7c6n5)cc4[S+](=O)([O-])[O-])c([S+](=O)([O-])[O-])c3)nc12	/	/	/	.	.
O=[N+]([O-])c1ccc(N/N=C/c2sc(N3CCOCC3)nc2-c2ccccc2)c(S(=O)(=O)Nc2ccccc2Cl)c1	.	.	.	9.2µM	2.59µM
O=C(N/N=C/c1sc(N2CCOCC2)nc1-c1ccccc1)c1ccccc1O	.	.	.	23.1µM	16.4µM
CCN1CCc2c(sc(-n3cccc3)c2C(C)NC(=O)Nc2cc(Cl)c(OC)cc2OC)C1 (centres undefined)	.	.	/	.	?
CCN1CCOC(=O)C1CC(=O)Nc1cc(C)cc(C)c1 (centres undefined)	.	.	/	.	.
Cc1cccc(C2C=C(c3ccc(C)c(C)c3)Nc3nnnn32)c1 (centres undefined)	.	.	/	.	/
COc1ccc2cc(C(=O)/C=C/c3cc(OC)c(O)c(OC)c3)ccc2c1	.	?	.	.	?
COc1ccc(C(=O)/C=C/c2cc(OC)c(O)c(OC)c2)c(F)c1	?	15.8µM	.	.	.
Cc1ncc(CO)c(/C=N/NC(=O)c2ccc(O)cc2)c1O	.	.[9.22 µM]	.	.	.
Cc1ncc(CO)c(/C=N/NC(=O)c2cc3c(s2)CCCC3)c1O	.	.	.	.	23.1µM
SMILES	miR-21 reporter	Nrf2 ARE act	B2AR arrestin	A549 viability	Nrf2 block
O=C(NC(=S)N1CCN(c2nc(-c3ccccc3)cs2)CC1)c1cncc(Br)c1	.	.	.	.	23.1µM
COCCCNC(=S)N1CCN(c2nc(-c3ccccc3)cs2)CC1	.	.	.	.	11.6µM
COCCCNC(=S)N1CCN(c2nc(-c3ccc(Cl)cc3)cs2)CC1	/	.	/	/	/
CCOCCCNC(=S)N1CCN(c2nc(-c3ccccc3)cs2)CC1	.	.	.	.	16.4µM
CCCCn1c(CNC(=O)C23CC4CC(CC(C4)C2)C3)nnc1SCC(=O)Nc1ccccc1	.	.	/	.	?
CCCN(CCC)c1nc(N)nc(C#N)n1	/	/	/	.	.
COc1cccc(Nc2ccc([N+](=O)[O-])c3nonc23)c1	.	.[9.22 µM]	.	18.4µM	?
O=C(O)c1ccccc1Nc1ccc([N+](=O)[O-])c2nonc12	.	.	.	18.4µM	.
Cc1cc2c(s1)c1cnn(Cc3ccc(OC(F)F)cc3)c(=O)c1n2C	/	/	/	.	.
CCCN1CNc2c(c(=O)[nH]c(=S)n2CCc2cc(OC)ccc2OC)C1	/	/	/	?	.
Cc1ccc(NS(=O)(=O)c2ccc(NC(=O)CN(c3cc([N+](=O)[O-])ccc3C)S(C)(=O)=O)cc2)c(C)c1	?	.	.	?	9.2µM
Cc1ccc([N+](=O)[O-])cc1N(CC(=O)NC1CCCC1)S(C)(=O)=O	.	.	.	.	.
COc1ccc(C(Nc2ccccn2)c2c(NC(=O)c3ccco3)sc(C)c2C)cc1 (centres undefined)	.	.	.	.	?
Cc1sc(NC(=O)c2ccco2)c(C(Nc2ccccn2)c2ccccc2)c1C (centres undefined)	.	.	.	.	20.6µM
CN(C(=O)CSc1nc2ccc(NC(=O)c3ccc(F)cc3)cc2s1)c1ccccc1	?	.	/	.	?
Cc1ccc(S(=O)(=O)NCCCNS(=O)(=O)c2ccccc2[N+](=O)[O-])cc1	.	.	.	.	18.4µM
Cc1ccc(C)c(NC(=O)CN(C)C(=O)c2ccc3[nH]c4c(c3c2)CC(C)CC4)c1 (centres undefined)	/	.	.	?	18.4µM
CC1CCc2[nH]c3ccc(C(=O)N(C)CC(=O)Nc4ccccc4Br)cc3c2C1 (centres undefined)	/	.	.	?	?
C/C(=N\OCC(=O)Nc1ccc2c(c1)OCCO2)c1ccc2c(c1)OCCO2	.	.	.	.	18.4µM
CCOCC(=O)Nc1ccc2c(c1)OCCO2	.	.	.	.	.
CC(C)(C)C(=O)N(Cc1ccc(Cl)cc1)c1cnccn1	.	.	.	.	18.4µM
Cc1ccc(-c2nn3c(-c4ccc(C)cc4)nnc3c3ccccc23)cc1	.	.	/	.	.
Cc1nn2c3ccccc3nc2c2ccccc12	.	7.94µM	.	.	.
Cc1nn2c(-c3ccccc3)nnc2c2ccccc12	.	3.98µM	.	.	?
O=C(CC1C(=O)NCCN1Cc1ccc(-c2ccccc2)cc1)NCC1CC1 (centres undefined)	.	.	.	?	23.1µM
Cc1csc(CNc2ncnc3ccc(-c4ccc5c(ccn5C)c4)cc23)c1	/	/	.	/	/
Cc1oc(-c2ccccc2F)nc1CSCC(=O)NC1CCCC1	.	.	.	.	18.4µM
COc1ccccc1/C=N/OCc1ccc(C#N)cc1	.	.	.	.	18.4µM
Cc1ccc(C)c(NS(=O)(=O)c2ccc3oc(=O)ccc3c2)c1	.	.	.	.	.
